Test system: PBMCs
Experiment: PBMC Luminex, cytokine/chemokine/growth factor/ligands secretion
Assay type: cell-based, human
Conditions: for GRO / IL-6 / IL-7 / IL-8 / IL-10 / IL-12p40 / IL-12p70 / IL-13 / IL-15 / IP-10 / MCP1 / MCP1a / MCP3 / MDC / MIP1b / PDGF-AB/BB / PDGFaa / Rantes / TNFa / TNFb / VEGF: overnight treatment, supernatant
Protocol: Human ELISA kits for IFN-γ and IL-6 were purchased from Biolegend (San Diego, CA). The assay was conducted as recommended by the manufacturer. For certain experiments multiplex arrays were used to determine the levels of secreted cytokines and chemokines. Analysis was performed using MAGPIX (Millipore, MA) and data was analyzed using xPONENT 4.2.
Increased cytokine/chemokine/growth factor/ligands in PBMCs of patient activated with anti-CD3/28 and no difference between those activated with IL-2+anti-CD16 or IL-2+sAJ2 when compared to healthy twin (Tables 51-54). PBMC Luminex. PBMCs were left untreated, treated with IL-2 (1000 U/mL) or treated with the combination of IL-2 and anti-CD16 mAb (3 μg/ml), IL-2+anti-CD3/28 antibodies (25 μl/mL) or IL-2+sAJ2 (Cells:sAJ2 1:20). After an overnight treatment at 37° C., the supernatants were harvested and the levels of cytokine/chemokine/growth factor/ligands secretion were measured using multiplex luminex assay (Millipore, MA) (Tables 51-54).

[1] = H85 TC (healthy twin) PBMC supernatant

In the case of Recombinant human IL-2, the EGF (H84 JC (ALS) PBMC supernatant) is reported as 32.7 pg/mL, the Eotaxin (H84 JC (ALS) PBMC supernatant) is reported as 6.73 pg/mL and the FGF2 (H84 JC (ALS) PBMC supernatant) is reported as 9.4 pg/mL. For the same substance, the FIT3L (H84 JC (ALS) PBMC supernatant) was 7.25 pg/mL, the Fractalkine (H84 JC (ALS) PBMC supernatant) was 136.75 pg/mL and the GCSF (H84 JC (ALS) PBMC supernatant) was 72.23 pg/mL. It also gave a GMCSF (H84 JC (ALS) PBMC supernatant) of 19.31 pg/mL, an IFNa2 (H84 JC (ALS) PBMC supernatant) of 61.65 pg/mL and an IFNg (H84 JC (ALS) PBMC supernatant) of 737.57 pg/mL. For the same substance, the IL-1Ra (H84 JC (ALS) PBMC supernatant) was 223.2 pg/mL, the IL-1b (H84 JC (ALS) PBMC supernatant) was 78.01 pg/mL and the IL-3 (H84 JC (ALS) PBMC supernatant) was 1.46 pg/mL. It also gave an IL-4 (H84 JC (ALS) PBMC supernatant) of 52.33 pg/mL, an IL-5 (H84 JC (ALS) PBMC supernatant) of 4.1 pg/mL and an IL-9 (H84 JC (ALS) PBMC supernatant) of 11.69 pg/mL. For the same substance, the IL-17a (H84 JC (ALS) PBMC supernatant) was 3.7 pg/mL, the L-2 (H84 JC (ALS) PBMC supernatant) was 5861 pg/mL and the Scd40L (H84 JC (ALS) PBMC supernatant) was 90.93 pg/mL. For the same substance, the TGFa (H84 JC (ALS) PBMC supernatant) was 2.06 pg/mL, the GRO (H84 JC PBMC) was 787.28 pg/mL and the IL-6 (H84 JC PBMC) was 187.38 pg/mL. For the same substance, the IL-7 (H84 JC PBMC) was 13.08 pg/mL, the IL-8 (H84 JC PBMC) was 1731 pg/mL and the IL-10 (H84 JC PBMC) was 35.16 pg/mL. It also gave an IL-12p40 (H84 JC PBMC) of 11.69 pg/mL, an IL-12p70 (H84 JC PBMC) of 5.22 pg/mL and an IL-13 (H84 JC PBMC) of 27.85 pg/mL. The IL-15 (H84 JC PBMC) was 3.58 pg/mL, the IP-10 (H84 JC PBMC) was 5325 pg/mL and the MCP1 (H84 JC PBMC) was 3791 pg/mL. The MCP1a (H84 JC PBMC) was 797.51 pg/mL, the MCP3 (H84 JC PBMC) was 19.59 pg/mL and the MDC (H84 JC PBMC) was 236.67 pg/mL. It also gave an MIP1b (H84 JC PBMC) of 1226 pg/mL, a PDGF-AB/BB (H84 JC PBMC) of 628.12 pg/mL and a PDGFaa (H84 JC PBMC) of 216.77 pg/mL. It also gave a Rantes (H84 JC PBMC) of 2776 pg/mL, a TNFa (H84 JC PBMC) of 86.34 pg/mL and a TNFb (H84 JC PBMC) of 8.68 pg/mL. It also gave a VEGF (H84 JC PBMC) of 169.34 pg/mL, an EGF [1] of 21.7 pg/mL and an Eotaxin [1] of 6.65 pg/mL. The FGF2 [1] was 8.91 pg/mL, the FIT3L [1] was 7.82 pg/mL and the Fractalkine [1] was 144.7 pg/mL. It also gave a GCSF [1] of 78.01 pg/mL, a GMCSF [1] of 29.52 pg/mL and an IFNa2 [1] of 55.3 pg/mL. For the same substance, the IFNg [1] was 356.57 pg/mL, the IL-1Ra [1] was 290.61 pg/mL and the IL-1b [1] was 31.3 pg/mL. For the same substance, the IL-3 [1] was 1.55 pg/mL, the IL-4 [1] was 58.41 pg/mL and the IL-5 [1] was 2.73 pg/mL. For the same substance, the IL-9 [1] was 11.37 pg/mL, the IL-17a [1] was 3.82 pg/mL and the L-2 [1] was 6058 pg/mL. The Scd40L [1] was 60.01 pg/mL, the TGFa [1] was 2.34 pg/mL and the GRO (H85 TC PBMC) was 578.51 pg/mL. For the same substance, the IL-6 (H85 TC PBMC) was 233.23 pg/mL, the IL-7 (H85 TC PBMC) was 15.53 pg/mL and the IL-8 (H85 TC PBMC) was 1200 pg/mL. The IL-10 (H85 TC PBMC) was 30.4 pg/mL, the IL-12p40 (H85 TC PBMC) was 10.47 pg/mL and the IL-12p70 (H85 TC PBMC) was 5.98 pg/mL. The IL-13 (H85 TC PBMC) was 23.35 pg/mL, the IL-15 (H85 TC PBMC) was 5.58 pg/mL and the IP-10 (H85 TC PBMC) was 5713 pg/mL. For the same substance, the MCP1 (H85 TC PBMC) was 3688 pg/mL, the MCP1a (H85 TC PBMC) was 882.8 pg/mL and the MCP3 (H85 TC PBMC) was 18.48 pg/mL. It also gave an MDC (H85 TC PBMC) of 213.63 pg/mL, an MIP1b (H85 TC PBMC) of 1574 pg/mL and a PDGF-AB/BB (H85 TC PBMC) of 611.21 pg/mL. The PDGFaa (H85 TC PBMC) was 153.17 pg/mL, the Rantes (H85 TC PBMC) was 1987 pg/mL and the TNFa (H85 TC PBMC) was 233.23 pg/mL. For the same substance, the TNFb (H85 TC PBMC) was 12.72 pg/mL and the VEGF (H85 TC PBMC) was 144.7 pg/mL.

Source: patent publication US20240245770A1, “COMPOSITIONS AND METHODS FOR TREATING NEUROMUSCULAR DISORDERS” (The Regents of the University of California, priority 2019, published 2024)
